# Source: publication PMC9476706, “Integrating pharmacokinetics and network analysis to investigate the mechanism of Moutan Cortex in blood-heat and blood stasis syndrome” (Chinese Medicine, 2022)
# Assay: Pharmacokinetic study of nine absorbed components in rat serum after oral RMC extract (UHPLC-DAD);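 also: BHS model made by subcutaneous yeast suspension then two adrenaline injections with ice-water immersion, normal rats given saline instead, serum analytes quantified by UHPLC-DAD at 254 nm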
# Conditions: for AUC / Cmax / MRT / T1/2 / Tmax: serum, oral RMC extract 10 mL/kg (equal to 6 g/mL of RMC) once a day for 7 days, n = 6
substance,measurement,setting,value
oxypaeoniflorin,AUC,BHS-RMC group (BHS model rats),24.16 ± 3.09↓ μg/mL*h
same,Cmax,BHS-RMC group (BHS model rats),2.09 ± 0.04↓ μg/mL
same,MRT,BHS-RMC group (BHS model rats),21.59 ± 3.42↑ h
same,T1/2,BHS-RMC group (BHS model rats),15.13 ± 2.25↑ h
same,Tmax,BHS-RMC group (BHS model rats),0.50 ± 0.00↓ h
same,time after which the compound was not detected,"BHS-RMC rats, oral RMC extract",6 h
same,AUC,N-RMC group (normal rats),45.72 ± 1.4 µg·h/mL
same,Cmax,N-RMC group (normal rats),10.23 ± 0.11 µg/mL
same,MRT,N-RMC group (normal rats),5.53 ± 0.50 h
same,T1/2,N-RMC group (normal rats),3.08 ± 0.98 h
same,Tmax,N-RMC group (normal rats),4.00 ± 0.00 h
